Data as given in ChEMBL document CHEMBL5053511, “Discovery of a Novel BCL-XL PROTAC Degrader with Enhanced BCL-2 Inhibition” (J Med Chem, 2021).

Amino acid sequences for entries named in this document (tags omitted).
UniProt P10415, whole entry: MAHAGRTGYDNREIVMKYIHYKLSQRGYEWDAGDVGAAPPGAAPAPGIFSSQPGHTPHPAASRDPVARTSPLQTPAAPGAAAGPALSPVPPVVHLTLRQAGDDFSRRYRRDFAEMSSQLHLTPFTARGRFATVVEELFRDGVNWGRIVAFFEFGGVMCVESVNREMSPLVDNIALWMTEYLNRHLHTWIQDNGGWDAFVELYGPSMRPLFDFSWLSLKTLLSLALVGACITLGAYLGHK

Target: Apoptosis regulator Bcl-2 (Homo sapiens, UniProt P10415)
Experiment: Displacement of biotin-tagged MRPEPATIAQELRRIGDEFNA from C-terminal His-tagged human BCL-2 (1` to 211 residues) expressed in Escherichia coli measured after 2 hrs by AlphaScreen assay
In short: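 AlphaScreen displacement, run with or without VCB. Biotin-Bim (80 nM, for BCL-2) or biotin-Bad (16 nM, for BCL-XL) was combined with serially diluted compound and 6×His protein in 25 mM HEPES pH 7.5, 100 mM NaCl, 0.1% BSA, 0.005% Tween 20. Anti-His acceptor beads were added for 1 h at room temperature, then streptavidin donor beads for 30 min in the dark. Ki was fitted by one-site competitive model from peptide concentration and measured Kd values; reported as mean ± SD of at least two experiments in triplicate.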

Compound: CC1(C)CCC(c2ccc(Cl)cc2)=C(CN2CCN(c3ccc(C(=O)NS(=O)(=O)c4ccc(N[C@H](CCN5CCOCC5)CSc5ccccc5)c(S(=O)(=O)C(F)(F)F)c4)cc3)CC2)C1 [NAVITOCLAX]
- Kd: 0.65 nM
